{"source": "paper PMC12015663", "about": "(Cancer Research Communications, 2025)"}
{"system": "pERK in NF1-LOF tumor cell lines sNF96.2, MeWo, and NCI-H1838", "experiment": "pERK modulation pattern, MSD ELISA, statements on all three NF1-LOF tumor cell lines", "conditions": "1 hour after treatment, 10 μmol/L to 1.52 nmol/L"}
{"smiles": "O=C1CCc2c(Oc3ccc4c(c3)[C@@H]3[C@H](O4)[C@H]3c3nc4ccc(C(F)(F)F)cc4[nH]3)ccnc2N1", "note": "[BGB-283]", "pERK modulation pattern over concentration": "bell-shaped curve of pERK modulation"}
{"smiles": "Cc1ccc2c(Nc3cccc(Cl)c3F)nccc2c1NC(=O)c1csc2c(N)ncnc12", "note": "[Belvarafenib]", "pERK modulation pattern over concentration": "bell-shaped curve of pERK modulation"}
{"smiles": "Cc1ccc(NC(=O)c2ccnc(C(F)(F)F)c2)cc1-c1cc(OCCO)nc(N2CCOCC2)c1", "note": "[LXH254]", "pERK modulation pattern over concentration": "bell-shaped curve of pERK modulation"}
{"smiles": "N#Cc1c(Oc2ccc(F)c(NC(=O)Cc3cccc(C(F)(F)F)c3)c2)ccc2nc(NC(=O)C3CC3)sc12", "note": "[TAK-632]", "pERK modulation pattern over concentration": "bell-shaped curve of pERK modulation"}
{"smiles": "CCCS(=O)(=O)Nc1ccc(F)c(C(=O)c2c[nH]c3ncc(-c4ccc(Cl)cc4)cc23)c1F", "note": "[Vemurafenib]", "pERK modulation pattern over concentration": "pERK levels increased with vemurafenib concentration"}
